Experimental data reported in US20130045299A1, “Natural Mold Inhibitor and Methods of Using Same” (priority 2011, published 2013).

Experiment: pH of baked bread
Format: physicochemical
Settings: Table 9; 0.33%

**Q.** With `CCC(=O)[O-].CCC(=O)[O-].[Ca+2]` [Calcium Propionate, calcium propionate] as the molecule, how does the “pH Bread” value read?
**A.** 5.31
